# Source: patent EP4834897A1, “COMPOUNDS WITH TWO AZAHETEROCYCLES SUBSTITUTED ISOINDOLINONE SKELETON AND USES THEREOF” (dated 2026)
# By UniProt entry, the sequences of proteins in these tests, tags left out.
# UniProt P48729, whole entry: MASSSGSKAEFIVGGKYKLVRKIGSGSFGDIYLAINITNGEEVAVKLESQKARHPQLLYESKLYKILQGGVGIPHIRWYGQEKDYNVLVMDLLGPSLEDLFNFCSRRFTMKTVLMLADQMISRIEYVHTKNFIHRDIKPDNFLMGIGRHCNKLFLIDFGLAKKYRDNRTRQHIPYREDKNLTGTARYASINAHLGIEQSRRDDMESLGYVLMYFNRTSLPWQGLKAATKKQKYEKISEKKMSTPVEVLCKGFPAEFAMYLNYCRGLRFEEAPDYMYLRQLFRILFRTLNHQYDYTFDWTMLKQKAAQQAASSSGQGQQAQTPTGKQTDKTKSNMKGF
# UniProt Q96SW2, whole entry: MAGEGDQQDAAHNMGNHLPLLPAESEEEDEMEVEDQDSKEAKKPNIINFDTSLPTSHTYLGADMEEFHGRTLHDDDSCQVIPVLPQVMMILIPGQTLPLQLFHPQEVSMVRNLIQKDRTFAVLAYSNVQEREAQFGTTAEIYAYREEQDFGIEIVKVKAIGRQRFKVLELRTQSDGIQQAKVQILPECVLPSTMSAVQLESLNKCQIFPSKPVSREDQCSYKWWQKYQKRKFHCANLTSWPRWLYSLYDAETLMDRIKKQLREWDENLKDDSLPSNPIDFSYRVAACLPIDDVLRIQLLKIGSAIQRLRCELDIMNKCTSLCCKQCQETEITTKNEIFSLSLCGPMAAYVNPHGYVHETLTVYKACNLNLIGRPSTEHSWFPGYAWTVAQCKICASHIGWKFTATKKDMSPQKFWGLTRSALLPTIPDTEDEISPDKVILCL
# UniProt P15170, whole entry: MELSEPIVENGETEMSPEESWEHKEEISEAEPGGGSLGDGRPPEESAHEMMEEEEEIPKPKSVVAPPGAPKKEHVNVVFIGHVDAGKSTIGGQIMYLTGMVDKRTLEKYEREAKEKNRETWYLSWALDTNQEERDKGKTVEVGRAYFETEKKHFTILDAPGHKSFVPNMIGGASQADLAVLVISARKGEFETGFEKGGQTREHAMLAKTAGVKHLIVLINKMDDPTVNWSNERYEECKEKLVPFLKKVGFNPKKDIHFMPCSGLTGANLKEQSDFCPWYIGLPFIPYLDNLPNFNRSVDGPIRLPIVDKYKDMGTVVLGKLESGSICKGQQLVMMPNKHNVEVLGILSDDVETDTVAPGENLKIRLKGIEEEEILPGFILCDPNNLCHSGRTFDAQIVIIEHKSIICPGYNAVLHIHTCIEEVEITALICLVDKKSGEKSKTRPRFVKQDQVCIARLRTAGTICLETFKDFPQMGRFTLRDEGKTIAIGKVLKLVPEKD
# UniProt Q13422, whole entry: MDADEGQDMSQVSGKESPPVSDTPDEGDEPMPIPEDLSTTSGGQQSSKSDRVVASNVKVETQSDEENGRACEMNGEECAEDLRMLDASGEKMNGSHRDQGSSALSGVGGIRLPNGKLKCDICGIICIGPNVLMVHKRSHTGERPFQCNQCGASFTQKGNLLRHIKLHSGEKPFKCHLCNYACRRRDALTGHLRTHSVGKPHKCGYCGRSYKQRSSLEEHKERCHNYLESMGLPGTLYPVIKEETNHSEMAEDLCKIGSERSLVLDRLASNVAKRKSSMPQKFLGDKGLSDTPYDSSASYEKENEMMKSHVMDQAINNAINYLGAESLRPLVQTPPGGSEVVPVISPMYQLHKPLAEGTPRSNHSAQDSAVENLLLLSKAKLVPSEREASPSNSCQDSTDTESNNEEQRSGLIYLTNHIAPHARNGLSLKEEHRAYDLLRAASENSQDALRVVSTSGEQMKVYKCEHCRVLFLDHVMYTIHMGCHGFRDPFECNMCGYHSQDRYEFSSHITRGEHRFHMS
# UniProt Q9UKS7, whole entry: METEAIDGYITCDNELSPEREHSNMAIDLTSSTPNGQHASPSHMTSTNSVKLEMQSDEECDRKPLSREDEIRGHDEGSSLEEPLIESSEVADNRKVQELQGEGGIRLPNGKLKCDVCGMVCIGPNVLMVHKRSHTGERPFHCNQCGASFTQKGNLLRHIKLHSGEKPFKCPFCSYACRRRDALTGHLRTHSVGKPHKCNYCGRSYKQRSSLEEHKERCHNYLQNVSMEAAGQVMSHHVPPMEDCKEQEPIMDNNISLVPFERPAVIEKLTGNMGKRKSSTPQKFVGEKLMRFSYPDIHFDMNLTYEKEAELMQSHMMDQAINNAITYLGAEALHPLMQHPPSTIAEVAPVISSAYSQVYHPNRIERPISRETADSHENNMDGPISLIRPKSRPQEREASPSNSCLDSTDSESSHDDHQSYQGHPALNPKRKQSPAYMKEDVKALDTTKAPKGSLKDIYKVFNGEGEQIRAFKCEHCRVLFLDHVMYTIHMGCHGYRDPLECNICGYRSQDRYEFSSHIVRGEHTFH
# UniProt Q9UKT9, whole entry: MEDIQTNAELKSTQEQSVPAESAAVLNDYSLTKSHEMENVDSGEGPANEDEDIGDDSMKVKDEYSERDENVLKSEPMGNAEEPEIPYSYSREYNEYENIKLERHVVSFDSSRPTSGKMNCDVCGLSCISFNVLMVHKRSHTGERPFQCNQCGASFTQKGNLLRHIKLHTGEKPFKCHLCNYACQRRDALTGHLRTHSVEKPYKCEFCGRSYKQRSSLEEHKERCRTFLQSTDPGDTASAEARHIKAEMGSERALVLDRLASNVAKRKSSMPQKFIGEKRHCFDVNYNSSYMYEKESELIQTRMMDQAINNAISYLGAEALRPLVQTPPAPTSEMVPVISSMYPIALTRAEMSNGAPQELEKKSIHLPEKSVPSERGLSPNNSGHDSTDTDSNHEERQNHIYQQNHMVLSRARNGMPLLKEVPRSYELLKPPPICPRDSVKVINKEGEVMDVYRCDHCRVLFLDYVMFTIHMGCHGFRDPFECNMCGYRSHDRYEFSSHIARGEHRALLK
# UniProt P30291, whole entry: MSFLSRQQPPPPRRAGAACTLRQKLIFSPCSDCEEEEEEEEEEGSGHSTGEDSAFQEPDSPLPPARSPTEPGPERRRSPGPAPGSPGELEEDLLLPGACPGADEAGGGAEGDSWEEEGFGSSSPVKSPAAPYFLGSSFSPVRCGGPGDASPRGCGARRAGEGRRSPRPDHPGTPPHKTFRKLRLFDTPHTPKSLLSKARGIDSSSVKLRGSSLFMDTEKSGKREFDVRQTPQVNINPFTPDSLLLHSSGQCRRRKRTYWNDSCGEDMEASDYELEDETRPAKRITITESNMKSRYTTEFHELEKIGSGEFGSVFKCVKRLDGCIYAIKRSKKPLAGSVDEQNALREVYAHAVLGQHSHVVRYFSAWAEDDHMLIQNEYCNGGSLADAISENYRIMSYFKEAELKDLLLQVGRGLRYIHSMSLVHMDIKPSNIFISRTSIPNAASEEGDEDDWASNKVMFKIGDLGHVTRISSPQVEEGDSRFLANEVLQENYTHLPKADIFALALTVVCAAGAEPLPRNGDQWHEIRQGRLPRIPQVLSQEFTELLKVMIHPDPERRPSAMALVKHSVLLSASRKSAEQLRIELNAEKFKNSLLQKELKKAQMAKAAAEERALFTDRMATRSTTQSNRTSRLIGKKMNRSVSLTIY
# UniProt Q16531, whole entry partner: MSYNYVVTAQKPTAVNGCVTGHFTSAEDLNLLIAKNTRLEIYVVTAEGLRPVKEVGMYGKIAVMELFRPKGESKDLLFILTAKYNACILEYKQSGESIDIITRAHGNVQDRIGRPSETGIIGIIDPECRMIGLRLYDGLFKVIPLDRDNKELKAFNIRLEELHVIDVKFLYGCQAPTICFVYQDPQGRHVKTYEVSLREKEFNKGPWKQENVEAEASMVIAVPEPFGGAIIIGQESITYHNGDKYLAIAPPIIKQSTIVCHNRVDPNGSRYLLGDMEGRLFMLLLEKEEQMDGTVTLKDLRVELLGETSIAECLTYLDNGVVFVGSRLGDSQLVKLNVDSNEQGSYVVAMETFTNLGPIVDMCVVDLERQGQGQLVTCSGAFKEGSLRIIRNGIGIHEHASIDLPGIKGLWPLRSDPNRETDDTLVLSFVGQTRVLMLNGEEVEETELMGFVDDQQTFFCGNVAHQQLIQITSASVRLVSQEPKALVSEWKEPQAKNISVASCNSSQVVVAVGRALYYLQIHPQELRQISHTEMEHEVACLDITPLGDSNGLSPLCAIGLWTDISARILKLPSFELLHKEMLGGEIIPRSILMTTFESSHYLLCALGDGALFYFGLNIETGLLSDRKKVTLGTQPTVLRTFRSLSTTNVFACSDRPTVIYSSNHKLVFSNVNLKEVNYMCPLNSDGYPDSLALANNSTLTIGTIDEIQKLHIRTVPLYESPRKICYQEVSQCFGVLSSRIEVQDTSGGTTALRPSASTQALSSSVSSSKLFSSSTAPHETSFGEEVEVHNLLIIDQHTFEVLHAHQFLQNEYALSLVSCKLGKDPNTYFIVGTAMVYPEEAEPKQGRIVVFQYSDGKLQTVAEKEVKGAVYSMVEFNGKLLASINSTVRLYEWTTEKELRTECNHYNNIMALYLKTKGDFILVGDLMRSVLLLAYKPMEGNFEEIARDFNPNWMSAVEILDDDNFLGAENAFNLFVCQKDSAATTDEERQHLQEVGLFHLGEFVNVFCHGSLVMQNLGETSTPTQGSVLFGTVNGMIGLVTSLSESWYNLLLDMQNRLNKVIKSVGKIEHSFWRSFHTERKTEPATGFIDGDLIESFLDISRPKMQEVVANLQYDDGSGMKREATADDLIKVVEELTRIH
# Assays:
# CK1α = CK1α (Homo sapiens, UniProt P48729+Q96SW2); assay: Western blot assay of substrate protein degradation in hPBMCs; conditions: 24 hours treatment, compounds at 50 nM and 500 nM (concentration behind the class not stated)
# GSPT1 = GSPT1 (Homo sapiens, UniProt P15170+Q96SW2); assay: as above; conditions: 24 hours treatment, compounds at 50 nM and 500 nM (concentration behind the class not stated)
# IKZF1 = IKZF1 (Homo sapiens, UniProt Q13422+Q96SW2); assay: as above; conditions: 24 hours treatment, compounds at 50 nM and 500 nM (concentration behind the class not stated)
# IKZF2 = IKZF2 (Homo sapiens, UniProt Q96SW2+Q9UKS7); assay: as above; conditions: 24 hours treatment, compounds at 50 nM and 500 nM (concentration behind the class not stated)
# IKZF3 = IKZF3 (Homo sapiens, UniProt Q96SW2+Q9UKT9); assay: as above; conditions: 24 hours treatment, compounds at 50 nM and 500 nM (concentration behind the class not stated)
# WEE1 = WEE1 (Homo sapiens, UniProt P30291+Q96SW2); assay: as above; conditions: 24 hours treatment, compounds at 50 nM and 500 nM (concentration behind the class not stated)
# CRBN = CRBN (Homo sapiens, UniProt Q96SW2); assay: CRBN binding affinity by HTRF (CEREBLON BINDING kit); conditions: for Inhibition Rate at 0.5 µM (%) / Inhibition Rate at 2 µM (%): CRBN binding, HTRF; for Inhibition Rate at 0.5 µM (%): compound at 0.5 µM; for Inhibition Rate at 2 µM (%): compound at 2 µM; for IC50: read-out: HTRF IC50, human Cereblon WT GST-tagged protein, 3 hours at room temperature
smiles,measurement,setting,value
O=C1CCC(N2C(=O)c3ccc(C(=O)N4CCC(N5CCN(c6noc7cc(F)ccc67)CC5)C(F)(F)C4)cc3C2=O)C(=O)N1 (stereo not drawn),substrate protein remaining % (CK1a),CK1α,B (80%< substrate protein remaining %≤ 100%)
same,substrate protein remaining % (GSPT1),GSPT1,A (0% ≤ substrate protein remaining % ≤ 80%)
same,substrate protein remaining % (IKZF 1),IKZF1,B (80%< substrate protein remaining %≤ 100%)
same,substrate protein remaining % (IKZF2),IKZF2,B (80%< substrate protein remaining %≤ 100%)
same,substrate protein remaining % (IKZF3),IKZF3,B (80%< substrate protein remaining %≤ 100%)
same,substrate protein remaining % (WEE1),WEE1,A (0% ≤ substrate protein remaining % ≤ 80%)
CC1(C)CCC(CN2CCN(C3CCN(C(=O)c4ccc5c(c4)C(=O)N(C4CCC(=O)NC4=O)C5)CC3(F)F)CC2)=C(c2ccc(Cl)cc2)C1 (stereo not drawn),substrate protein remaining % (CK1a),CK1α,B (80%< substrate protein remaining %≤ 100%)
same,substrate protein remaining % (GSPT1),GSPT1,B (80%< substrate protein remaining %≤ 100%)
same,substrate protein remaining % (IKZF 1),IKZF1,B (80%< substrate protein remaining %≤ 100%)
same,substrate protein remaining % (IKZF2),IKZF2,B (80%< substrate protein remaining %≤ 100%)
same,substrate protein remaining % (IKZF3),IKZF3,A (0% ≤ substrate protein remaining % ≤ 80%)
same,substrate protein remaining % (WEE1),WEE1,B (80%< substrate protein remaining %≤ 100%)
CC1(C)CCC(CN2CCN(C3CCN(Cc4ccc5c(c4)C(=O)N(N4CCC(=O)NC4=O)C5=O)CC3(F)F)CC2)=C(c2ccc(Cl)cc2)C1 (stereo not drawn),substrate protein remaining % (CK1a),CK1α,B (80%< substrate protein remaining %≤ 100%)
same,substrate protein remaining % (GSPT1),GSPT1,A (0% ≤ substrate protein remaining % ≤ 80%)
same,substrate protein remaining % (IKZF 1),IKZF1,B (80%< substrate protein remaining %≤ 100%)
same,substrate protein remaining % (IKZF2),IKZF2,B (80%< substrate protein remaining %≤ 100%)
same,substrate protein remaining % (IKZF3),IKZF3,A (0% ≤ substrate protein remaining % ≤ 80%)
same,substrate protein remaining % (WEE1),WEE1,B (80%< substrate protein remaining %≤ 100%)
O=C1CCC(N2C(=O)c3ccc(CN4CCC(N5CCN(c6cccc(Cl)c6Cl)CC5)C(F)(F)C4)cc3C2=O)C(=O)N1 (stereo not drawn),substrate protein remaining % (CK1a),CK1α,A (0% ≤ substrate protein remaining % ≤ 80%)
same,substrate protein remaining % (GSPT1),GSPT1,A (0% ≤ substrate protein remaining % ≤ 80%)
same,substrate protein remaining % (IKZF 1),IKZF1,A (0% ≤ substrate protein remaining % ≤ 80%)
same,substrate protein remaining % (IKZF2),IKZF2,B (80%< substrate protein remaining %≤ 100%)
same,substrate protein remaining % (IKZF3),IKZF3,B (80%< substrate protein remaining %≤ 100%)
same,substrate protein remaining % (WEE1),WEE1,A (0% ≤ substrate protein remaining % ≤ 80%)
O=C1CCC(N2Cc3cccc(C(=O)N4CCC(N5CCN(C(c6ccccc6)c6ccccc6)CC5)CC4)c3C2=O)C(=O)N1 (stereo not drawn),substrate protein remaining % (CK1a),CK1α,A (0% ≤ substrate protein remaining % ≤ 80%)
same,substrate protein remaining % (GSPT1),GSPT1,A (0% ≤ substrate protein remaining % ≤ 80%)
same,substrate protein remaining % (IKZF 1),IKZF1,A (0% ≤ substrate protein remaining % ≤ 80%)
same,substrate protein remaining % (IKZF2),IKZF2,A (0% ≤ substrate protein remaining % ≤ 80%)
same,substrate protein remaining % (IKZF3),IKZF3,B (80%< substrate protein remaining %≤ 100%)
same,substrate protein remaining % (WEE1),WEE1,B (80%< substrate protein remaining %≤ 100%)
O=C1CCC(N2C(=O)c3cccc(C(=O)N4CCC(N5CCN(C(c6ccccc6)c6ccccn6)CC5)C(F)(F)C4)c3C2=O)C(=O)N1 (stereo not drawn),substrate protein remaining % (CK1a),CK1α,B (80%< substrate protein remaining %≤ 100%)
same,substrate protein remaining % (GSPT1),GSPT1,A (0% ≤ substrate protein remaining % ≤ 80%)
same,substrate protein remaining % (IKZF 1),IKZF1,B (80%< substrate protein remaining %≤ 100%)
same,substrate protein remaining % (IKZF2),IKZF2,B (80%< substrate protein remaining %≤ 100%)
same,substrate protein remaining % (IKZF3),IKZF3,B (80%< substrate protein remaining %≤ 100%)
same,substrate protein remaining % (WEE1),WEE1,B (80%< substrate protein remaining %≤ 100%)
O=C1CCC(N2Cc3c(CN4CCC(N5CCN(c6cccc(Cl)c6Cl)CC5)C(F)(F)C4)cccc3C2=S)C(=O)N1 (stereo not drawn),Inhibition Rate at 0.5 µM (%),CRBN,a6 (60% < a6 ≤ 70%)
same,Inhibition Rate at 2 µM (%),CRBN,a8 (80% < a8 ≤100%)
O=C1CCC(N2Cc3ccc(C(=O)N4CCC(N5CCN(c6noc7cc(F)ccc67)CC5)C(F)(F)C4)cc3C2=O)C(=O)N1 (stereo not drawn),Inhibition Rate at 0.5 µM (%),CRBN,a3 (30% < a3 ≤ 40%)
same,Inhibition Rate at 2 µM (%),CRBN,a7 (70% < a7 ≤80%)
O=C1CCC(N2Cc3ccc(C(=O)N4CCC(N5CCN(c6cccc(Cl)c6Cl)CC5)CC4)cc3C2=O)C(=O)N1 (stereo not drawn),Inhibition Rate at 0.5 µM (%),CRBN,a3 (30% < a3 ≤ 40%)
same,Inhibition Rate at 2 µM (%),CRBN,a5 (53% < a5 ≤ 60%)
CC1(C)CCC(C(=O)N2CCN(C3CCN(C(=O)c4ccc5c(c4)C(=O)N(C4CCC(=O)NC4=O)C5)CC3(F)F)CC2)=C(c2ccc(Cl)cc2)C1 (stereo not drawn),Inhibition Rate at 0.5 µM (%),CRBN,a6 (60% < a6 ≤ 70%)
same,Inhibition Rate at 2 µM (%),CRBN,a8 (80% < a8 ≤100%)
CC1(C)CCC(C(=O)N2CCN(C3CCN(C(=O)c4cccc5c4C(=O)N(C4CCC(=O)NC4=O)C5)CC3(F)F)CC2)=C(c2ccc(Cl)cc2)C1 (stereo not drawn),Inhibition Rate at 0.5 µM (%),CRBN,a5 (53% < a5 ≤ 60%)
same,Inhibition Rate at 2 µM (%),CRBN,a7 (70% < a7 ≤80%)
O=C1CCC(N2Cc3cccc(C(=O)N4CCC(N5CCN(c6cccc(Cl)c6Cl)CC5)C(F)(F)C4)c3C2=O)C(=O)N1 (stereo not drawn),Inhibition Rate at 0.5 µM (%),CRBN,a2 (20% < a2 ≤ 30%)
same,Inhibition Rate at 2 µM (%),CRBN,a5 (53% < a5 ≤ 60%)
O=C1CCC(N2Cc3ccc(CN4CCC(N5CCN(C(c6ccccc6)c6ccccn6)CC5)C(F)(F)C4)cc3C2=S)C(=O)N1 (stereo not drawn),IC50,CRBN,1 to 1.5 µM
O=C1CCC(N2Cc3cc(CCCN4CCC(N5CCN(c6noc7cc(F)ccc67)CC5)C(F)(F)C4)ccc3C2=O)C(=O)N1 (stereo not drawn),Inhibition Rate at 0.5 µM (%),CRBN,a4 (40% < a4 ≤ 53%)
same,Inhibition Rate at 2 µM (%),CRBN,a7 (70% < a7 ≤80%)
CC1(C)CCC(C(=O)N2CCN(C3CCN(Cc4ccc5c(c4)C(=S)N(C4CCC(=O)NC4=O)C5)CC3(F)F)CC2)=C(c2ccc(Cl)cc2)C1 (stereo not drawn),Inhibition Rate at 0.5 µM (%),CRBN,a4 (40% < a4 ≤ 53%)
same,Inhibition Rate at 2 µM (%),CRBN,a8 (80% < a8 ≤100%)
O=C1CCC(N2Cc3cc(C(=O)N4CCC(N5CCN(C(c6ccccc6)c6ccccn6)CC5)C(F)(F)C4)c(F)cc3C2=O)C(=O)N1 (stereo not drawn),Inhibition Rate at 0.5 µM (%),CRBN,a3 (30% < a3 ≤ 40%)
same,Inhibition Rate at 2 µM (%),CRBN,a6 (60% < a6 ≤ 70%)
CC1(C)CCC(C(=O)N2CCN(C3CCN(Cc4ccc5c(c4)CN(N4CCC(=O)NC4=O)C5=O)CC3(F)F)CC2)=C(c2ccc(Cl)cc2)C1 (stereo not drawn),IC50,CRBN,1.5 to 1.9 µM
O=C1CCC(N2C(=O)c3ccc(CN4CCC(N5CCN(c6noc7cc(F)ccc67)CC5)C(F)(F)C4)cc3C2=O)C(=O)N1 (stereo not drawn),Inhibition Rate at 0.5 µM (%),CRBN,a2 (20% < a2 ≤ 30%)
same,Inhibition Rate at 2 µM (%),CRBN,a5 (53% < a5 ≤ 60%)
CC1(C)CCC(CN2CCN(C3CCN(C(=O)c4cc(F)c5c(c4)CN(C4CCC(=O)NC4=O)C5=O)CC3(F)F)CC2)=C(c2ccc(Cl)cc2)C1 (stereo not drawn),Inhibition Rate at 0.5 µM (%),CRBN,a2 (20% < a2 ≤ 30%)
same,Inhibition Rate at 2 µM (%),CRBN,a6 (60% < a6 ≤ 70%)
O=C1CCC(N2Cc3ccc(C(=O)N4CCC(N5CCC(c6noc7cc(F)ccc67)CC5)C(F)(F)C4)cc3C2=O)C(=O)N1 (stereo not drawn),Inhibition Rate at 0.5 µM (%),CRBN,a4 (40% < a4 ≤ 53%)
same,Inhibition Rate at 2 µM (%),CRBN,a7 (70% < a7 ≤80%)
O=C1CCC(N2Cc3c(CN4CCC(N5CCN(C(c6ccccc6)c6ccccc6)CC5)C(F)(F)C4)cccc3C2=S)C(=O)N1 (stereo not drawn),Inhibition Rate at 0.5 µM (%),CRBN,a4 (40% < a4 ≤ 53%)
same,Inhibition Rate at 2 µM (%),CRBN,a6 (60% < a6 ≤ 70%)
O=C1CCC(N2Cc3c(CN4CCC(N5CCN(C(c6ccccc6)c6ccccc6)CC5)CC4)cccc3C2=S)C(=O)N1 (stereo not drawn),Inhibition Rate at 0.5 µM (%),CRBN,a2 (20% < a2 ≤ 30%)
same,Inhibition Rate at 2 µM (%),CRBN,a5 (53% < a5 ≤ 60%)
O=C1CCC(N2Cc3c(CN4CCC(N5CCN(C(c6ccccc6)c6ccccc6)CC5)CC4)cccc3C2=O)C(=O)N1 (stereo not drawn),IC50,CRBN,1.5 to 1.9 µM
O=C1CCC(N2Cc3c(CN4CCC(N5CCC(c6noc7cc(F)ccc67)CC5)C(F)(F)C4)cccc3C2=S)C(=O)N1 (stereo not drawn),Inhibition Rate at 0.5 µM (%),CRBN,a5 (53% < a5 ≤ 60%)
same,Inhibition Rate at 2 µM (%),CRBN,a8 (80% < a8 ≤100%)
O=C1CCC(N2Cc3cccc(C(=O)N4CCC(N5CCC(c6noc7cc(F)ccc67)CC5)C(F)(F)C4)c3C2=O)C(=O)N1 (stereo not drawn),Inhibition Rate at 0.5 µM (%),CRBN,a4 (40% < a4 ≤ 53%)
same,Inhibition Rate at 2 µM (%),CRBN,a7 (70% < a7 ≤80%)
CC1(C)CCC(C(=O)N2CCN(C3CCN(C(=O)c4cc(F)c5c(c4)CN(C4CCC(=O)NC4=O)C5=O)CC3(F)F)CC2)=C(c2ccc(Cl)cc2)C1 (stereo not drawn),Inhibition Rate at 0.5 µM (%),CRBN,a6 (60% < a6 ≤ 70%)
same,Inhibition Rate at 2 µM (%),CRBN,a8 (80% < a8 ≤100%)
O=C1CCC(N2Cc3cc(CN4CCC(N5CCN(c6noc7cc(F)ccc67)CC5)CC4)cc(F)c3C2=O)C(=O)N1 (stereo not drawn),Inhibition Rate at 0.5 µM (%),CRBN,a4 (40% < a4 ≤ 53%)
same,Inhibition Rate at 2 µM (%),CRBN,a7 (70% < a7 ≤80%)
